SMILES strings stand for the structures.

Sequences of proteins named here, by UniProt entry; tags and fusion partners are left off.
UniProt P61981, whole entry: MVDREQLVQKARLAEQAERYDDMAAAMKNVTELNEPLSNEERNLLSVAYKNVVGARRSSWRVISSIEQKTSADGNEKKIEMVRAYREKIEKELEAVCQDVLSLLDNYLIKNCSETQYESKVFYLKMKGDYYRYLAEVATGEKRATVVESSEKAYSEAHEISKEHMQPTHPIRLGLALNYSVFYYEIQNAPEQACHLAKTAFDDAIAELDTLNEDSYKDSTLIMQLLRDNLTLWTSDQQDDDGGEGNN

Experiment [1] has as its target Pin1_72/14-3-3 complex (Homo sapiens, UniProt P61981). In words: Fluorescence anisotropy compound titration, Pin1_72/14-3-3 (CC50). In kind it is binding.
The target of experiment [2] is Pin1_72/14-3-3γ (Homo sapiens, UniProt P61981+Q13526). Put plainly: Fluorescence anisotropy protein titration, Pin1_72/14-3-3γ at constant compound. In kind it is binding. The conditions noted are these: based on internal DMSO control and 100 μM fragment.

Consider `O=Cc1ccc(-n2ccnc2Br)nc1` [16d, 6-(2-bromo-1H-imidazol-1-yl)pyridine-3-carbaldehyde], for which the “activity in FA assay” value in experiment [1] is given as “significant complex formation”. The “SF (fold stabilization)” value in experiment [2] is listed as 1.3.
In the case of `O=Cc1ccc(-n2ccnc2)cc1`, the “activity in FA assay” value in experiment [1] was “not active”.

These data come from patent US20230142739A1.
